Yeast mating assay 1: variants of the scFv Ab-14

The target is the same throughout: PDVDLGDISGINAS, from the HR2 region of SARS-CoV-2 spike.

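The starting antibody came from a phage panning campaign against this peptide. Variants in AAYL50 differ from the parent at up to three CDR positions; double and triple changes were sampled at random. In AlphaSeq, yeast of one mating type display the scFv and yeast of the other type display the target. The frequency of each diploid, read from paired DNA barcodes, reflects how well the two displayed proteins bind. Each replicate has its own calibration line, from reference interactions of the BCL2 family. Mating was done three times.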

Each scFv is VH, a 15-residue (Gly4Ser)3 linker, VL, as in the parent Ab-14, and differs from it in the CDRs of the light chain only.
VH: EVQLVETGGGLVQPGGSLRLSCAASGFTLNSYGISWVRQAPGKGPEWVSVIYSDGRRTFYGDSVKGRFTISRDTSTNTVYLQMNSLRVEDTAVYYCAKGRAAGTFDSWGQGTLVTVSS
VL: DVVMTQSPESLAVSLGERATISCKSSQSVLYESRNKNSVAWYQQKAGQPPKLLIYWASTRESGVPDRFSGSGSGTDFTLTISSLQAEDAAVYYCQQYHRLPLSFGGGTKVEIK

Each variant's VL is given in full.
Numbers give log10(Kd / nM), so 0 is 1 nM and 3 is 1 µM. Smaller is tighter.
Averages over replicates are reported, and they cover detected replicates only.
A pair that was not seen in any replicate is written "nd"; this usually means weak binding, but a binder can also be missed.

For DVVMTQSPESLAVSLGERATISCKSSQSVLYESMNKYSVAWYQQKAGQPPKLLIYWASTRESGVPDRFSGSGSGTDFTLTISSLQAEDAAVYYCPQYHRLPLSFGGGTKVEIK, the assay gave 1.23 (3 of 3 replicates).
For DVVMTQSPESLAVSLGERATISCKSCQSVLYESRNKNSVAWYQQKAGQPPKLLIYWASTRHSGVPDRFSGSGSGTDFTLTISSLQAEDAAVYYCQAYHRLPLSFGGGTKVEIK, the assay gave 3.58 (2 of 3 replicates).
For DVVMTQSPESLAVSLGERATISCKSNQSVLYMSRNKNSVAWYQQKAGQPPKLLIYWASTAESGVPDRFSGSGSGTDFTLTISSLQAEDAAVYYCQQYHRLPLSFGGGTKVEIK, the assay gave nd (0 of 3 replicates).
For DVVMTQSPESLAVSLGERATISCKSSQSVLYESRNKNSEAWYQQKAGQPPKLLIYWASTRESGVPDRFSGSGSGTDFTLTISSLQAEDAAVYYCQQYHRPPLSFGGGTKVEIK, the assay gave nd (0 of 3 replicates).
For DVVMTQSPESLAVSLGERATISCKASQSVLYESRNTNSVAWYQQKAGQPPKLLIYWARTRESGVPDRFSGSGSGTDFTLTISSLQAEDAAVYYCQQYHRLPLSFGGGTKVEIK, the assay gave 1.36 (3 of 3 replicates).
For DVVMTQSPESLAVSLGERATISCLSSQSVGYESRNKNSVAWYQQKAGQPPKLLIYWASTREMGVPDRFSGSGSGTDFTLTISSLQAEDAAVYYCQQYHRLPLSFGGGTKVEIK, the assay gave 1.74 (3 of 3 replicates).
For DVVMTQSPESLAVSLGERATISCKSSQSVLYESRNKNSVAWYQQKAGQPPKLLIYWAYSRESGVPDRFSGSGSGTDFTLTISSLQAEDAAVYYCQQYHRLPLLFGGGTKVEIK, the assay gave nd (0 of 3 replicates).
For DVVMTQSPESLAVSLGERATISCKSLQSVLYELREKNSVAWYQQKAGQPPKLLIYWASTRESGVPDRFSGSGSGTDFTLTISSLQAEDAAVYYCQQYHRLPLSFGGGTKVEIK, the assay gave nd (0 of 3 replicates).

Further variants, results first:

5.48 (2 of 3 replicates): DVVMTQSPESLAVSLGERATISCKSSQSVLYESRNKNSMAWYQQKAGQPPKLLIYWMSARESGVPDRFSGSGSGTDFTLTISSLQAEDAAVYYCQQYHRLPLSFGGGTKVEIK.
3.86 (2 of 3 replicates): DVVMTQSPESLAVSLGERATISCQSSQSVEYESRNKNSVAWYQQKAGQPPKLLIYWKSTRESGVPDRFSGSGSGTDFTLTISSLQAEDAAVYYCQQYHRLPLSFGGGTKVEIK.
nd (0 of 3 replicates): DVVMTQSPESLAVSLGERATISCVSSQRVLYESRNKNSVAWYQQKAGQPPKLLIYWASTRESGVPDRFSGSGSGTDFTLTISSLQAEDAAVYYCQQYHRLCLSFGGGTKVEIK.
0.91 (3 of 3 replicates): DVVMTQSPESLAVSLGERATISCKSSQSVLYESREFNSVAWYQQKAGQPPKLLIYWASTRESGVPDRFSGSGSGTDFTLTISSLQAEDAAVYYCQQYHRLWLSFGGGTKVEIK.
nd (0 of 3 replicates): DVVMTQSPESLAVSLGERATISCKSSQSVLYESRNKSSVAWYQQKAGQPPKLLIYWAETRESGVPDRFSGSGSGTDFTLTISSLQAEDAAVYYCQQYHRLHLSFGGGTKVEIK.
1.92 (3 of 3 replicates): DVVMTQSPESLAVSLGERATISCKSSYSVLYESRNKNSVAWYQQKAGQPPKLLIYWASTRESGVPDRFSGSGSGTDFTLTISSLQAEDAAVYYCQQYHELPLAFGGGTKVEIK.
2.11 (3 of 3 replicates): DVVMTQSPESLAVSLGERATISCKSSQSVLYASHNKNSVAWYQQKAGQPPKLLIYWAWTRESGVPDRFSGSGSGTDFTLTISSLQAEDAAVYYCQQYHRLPLSFGGGTKVEIK.
3.59 (2 of 3 replicates): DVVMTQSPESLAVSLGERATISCKSSQSVNYESANKNSVEWYQQKAGQPPKLLIYWASTRESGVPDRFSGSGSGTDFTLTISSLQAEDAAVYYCQQYHRLPLSFGGGTKVEIK.

As a blank, each scFv also met three strains without target: over library AAYL50, 18% of these pairings were detected, typically at 4.19 and seldom below 2.99.

Values reported by Engelhart et al. 2022, doi:10.1038/s41597-022-01779-4 (FLAb copy).